Laboratory results: US8383386

Molecular target: prothrombin (UniProt P00734)

plasma-derived factor Xa
Km ± SD (µM), prothrombin cleavage by FXa assembled in prothrombinase: 0.42 µM
Vmax/Et ± SD (nM IIa/min/nM E), prothrombin cleavage (nM IIa/min/nM E): 2420
Vmax/Et · Km (µM^-1 · s^-1), prothrombin cleavage: 9.6e+07 M⁻¹ s⁻¹
